Molecular target: T1, ITK (Homo sapiens, UniProt Q08881)
T1 construct: (Jurkat/pPLCγ1); endogenous in cells; host or cells: Jurkat
T1 sequence (Q08881 1-620): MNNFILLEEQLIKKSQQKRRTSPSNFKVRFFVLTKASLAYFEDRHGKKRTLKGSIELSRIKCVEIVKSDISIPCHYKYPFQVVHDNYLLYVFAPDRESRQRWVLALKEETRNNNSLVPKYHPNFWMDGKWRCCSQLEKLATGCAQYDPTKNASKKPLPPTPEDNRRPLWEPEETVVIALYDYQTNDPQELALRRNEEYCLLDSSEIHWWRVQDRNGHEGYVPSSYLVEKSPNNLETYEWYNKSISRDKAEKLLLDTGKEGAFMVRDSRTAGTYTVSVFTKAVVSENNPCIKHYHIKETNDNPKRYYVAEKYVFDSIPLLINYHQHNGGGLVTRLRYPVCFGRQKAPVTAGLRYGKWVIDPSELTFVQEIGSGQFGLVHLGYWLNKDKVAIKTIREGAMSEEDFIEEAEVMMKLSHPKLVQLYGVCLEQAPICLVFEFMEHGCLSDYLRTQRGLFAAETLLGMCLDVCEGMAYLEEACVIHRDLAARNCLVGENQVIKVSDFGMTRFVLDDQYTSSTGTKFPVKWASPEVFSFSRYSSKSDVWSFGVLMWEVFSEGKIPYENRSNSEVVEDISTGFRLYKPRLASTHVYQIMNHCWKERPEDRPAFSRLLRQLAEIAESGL
Experiment: Cell IC50 ITK (Jurkat/pPLCγ1)
Format: cell-based
Settings: Jurkat, pPLCγ1

IC50: 652 nM
Structure (SMILES): C=CC(=O)N1C[C@H](Nc2ncnc3[nH]ccc23)CC[C@@H]1C [Ritlecitinib, reference compound]
